# Laboratory results: patent US20220305093A1, “NK-LYSIN PEPTIDE COMPOSITIONS AND METHODS FOR THEIR USE AS ANTIMICROBIAL/ANTIVIRAL AGENTS” (priority 2021, published 2022)
# Like-named read-outs stand apart in the source and are kept apart here.
# Columns and labels:
# [1] = system: Escherichia coli (ATCC 11775)
# Experimental: (§1) The minimum inhibitory concentration (MIC) is defined as the lowest concentration of an antimicrobial ingredient or agent that is bacteriostatic (prevents the visible growth of bacteria).
# (§2) Mueller Hinton broth (MHB) comprising 0.01% v/v acetic acid (Sigma Aldrich; St Louis, Mo.) and 0.2% w/v bovine serum albumin (Sigma Aldrich). Equal concentrations of bacteria were plated in wells of standard tissue culture microplates at a density of 0.5×10^8 CFU ml^−1 in MHB per well. Treatments were equivalent volumes (50 μl) of NK-lysin peptides in concentrations of 0 to 150 μg/ml, or no NK-lysin peptides for control wells. The treated plates were incubated at […] and optical densities were determined for each well at 0 minutes, 1, 2 and 3 hours and after an overnight incubation.
# [2] = system: Klebsiella oxytoca (ATCC 49131)
# Experimental: as §1, §2
# [3] = system: Klebsiella pneumoniae (patient isolate)
# Experimental: as §1, §2
# [4] = system: Pseudomonas aeruginosa (ATCC 9027)
# Experimental: as §1, §2
# [5] = system: Salmonella typhimurium (ATCC 14028); conditions: for reduction of bacterial survival: 15 μg/ml
# Experimental: as §1, §2
# [6] = system: Shigella sonnei (ATCC 25931); conditions: Sh. sonnei ATCC 25931
# Experimental: as §1, §2
# [7] = system: Streptococcus mutans (isolate)
# Experimental: as §1, §2
# [8] = system: Streptococcus pyogenes (ATCC 19615)
# Experimental: as §1, §2
# [9] = system: S. typhimurium (ATCC 14028); assay: Colony count assays; format: cell-based, Salmonella typhimurium; conditions: 70 μg/ml
# Experimental: Antimicrobial activity of NK-lysin peptides was assayed in cultures of S. typhimurium (ATCC 14028). The bacteria were maintained in tryptic soy broth at 3TC and were grown to the mid-logarithmic phase prior to testing. To determine the activity of NK-lysin peptides, colony count assays were carried out. Bacteria were pelleted and then re-suspended in a 10 mM sodium phosphate buffer pH 7.0 and then diluted to a density of (2×10^6 CFU ml^−1 in MHB. 50 μl of NK-lysin peptide were combined with an equal volume of bacterial culture and incubated at room temperature for 3 hours. A 1 μl sample of each culture was then diluted by 1000 (in 1 ml) and spread over MH agar plates. Colonies were counted after 24 hours at room temperature to determine the bacteria that survived.
# [10] = system: Salmonella typhimurium (ATCC 14028); assay: Growth kinetic activity at 2×MIC; format: cell-based
# Experimental: The kinetic killing abilities of NK-lysin peptides were gauged in accordance with the Clinical Laboratory and Standard Institute (CLSI) broth micro-dilution technique presented by Wiegand and Hancock (2008). Mueller Hinton broth comprising 0.01% v/v acetic acid was prepared with 0.2% w/v bovine serum albumin, as above. Aerobic incubation of bacterial cells diluted to 0.5×10^8 CFU ml^−1 in MHB was carried out in microplates with the same volume (50 μl) of 2×MIC concentration of NK-lysin peptides. The plate was then incubated at room temperature. […] A distinct triplicate was used to repeat the kinetic potential of NK-lysin peptides thrice.
# [11] = system: S. typhimurium (ATCC 14028); format: cell-based, Salmonella typhimurium
# Experimental: Screening of NK-lysin peptides was carried out against gram-negative S. typhimurium (ATCC 14028) bacteria. Overnight cultivation of the bacteria was carried out at a temperature of 3TC. A bacterial suspension was created in 10 mM sodium phosphate buffer pH 7.0 having a density of (2×10^6 CFU ml^−1) and plated on Muller-Hinton (MH) agar plates to inoculate. After the plates were dry, antibiotics discs of various concentrations (0 to 150 μg/ml) of antibiotic or NK-lysin peptides were applied to the surface of the inoculated plates. The plates were cultured overnight at 3TC and observed for restriction of growth by determining the diameter of bacterial-free zones surrounding each disc. Ceftazidime antibiotic was employed as a positive control.
# [12] = system: Salmonella typhimurium (ATCC 14028); assay: Combination of NK-lysin peptide and silver nanoparticles, micro-dilution growth inhibition; format: cell-based; conditions: 1, 2, 3 and 24 hours
# [13] = system: Salmonella typhimurium (ATCC 14028); assay: Combination of NK-lysin peptide and human IL-2, micro-dilution growth inhibition; format: cell-based; conditions: over 24 hours; IL-2 2 ng/ml, peptide 1×MIC
# Experimental: The standard micro-dilution technique was used to measure the least-inhibitory concentration of NK-lysin peptide and Human IL-2 individually. This method was also used to measure the least-inhibitory concentration of the NK-lysin peptide mixed with IL-2. The 1×MIC of NK-lysin peptide against each bacterial strain was mixed with IL-2 (2 ng/ml).
# [14] = system: Salmonella typhimurium (ATCC 14028); assay: Bacterial lytic potential (OD600 ratio); format: cell-based; conditions: OD600 (1.0)
# Experimental: An assay described by Carson et al. (supra) was used with modifications to determine lytic potential of each NK-lysin. Screening of bacterial lytic potential of human and bovine NK-lysin peptides was carried out using two distinct bacterial inoculums, O.D600 (0.5) and O.D600 (1.0). Equal volumes of NK-lysin peptides (1×MIC) were combined with bacterial suspensions and plated in wells of microplates. The microplate was subsequently incubated at room temperature. A BioTek Instruments plate reader was used to measure the OD of each well of the microplate at various time intervals. NK-lysin peptides of corresponding concentrations in PBS were utilized as blanks. A ratio of OD600 nm at each time interval to the OD600 nm at 0 minutes was calculated and expressed as a percentage. Bacterial Membrane Damage with Fluorescent Microscopy Salmonella typhimurium membrane damage was determined by incubating 6.5×10^6 CFU of Salmonella typhimurium with 2×MIC of NK-lysin peptides in 10 mM phosphate buffer pH 7.0 at room temperature for one hour. Bacterial cells were stained with DAPI and PI for 1 hour, after which 10 μl of stained solution was added to a glass slide in a dark area. Slides were cover-slipped and examined by fluorescent microscopy (Nikon, Carl Zeiss; Oberkochen, Germany) was used to observe the membranes and detect any damage to the S. typhimurium membranes. Detection of Beta-Lactamase Enzymes after NK-Lysin Peptides Challenge
# Rotavirus (strain SA-11) = format: cell-based
# Experimental: Rotavirus (strain SA-11) was activated with 10 μg/mL trypsin before propagation on MA-104 cells derived from kidney cells of African […] monkey. MA-104 cells were cultivated in tissue culture flasks in the presence of less than 5% CO2 at 37° C. in Dulbecco's Minimal Essential Medium (DMEM) (Sigma-Aldrich) The DMEM included 1% antibiotic antimycotic solution and 10% heat inactivated fetal bovine serum (A5955, Sigma-Aldrich). Centrifugation of rotavirus was performed at 300×g for 5 mins in order to purify by removal of cell debris. The supernatant was utilized as a stock suspension of virus after filtration through 0.2 μm membrane. The stock virus contained 10^6-10^7 TCID50 per mL and was stored at −80° C. for future use.
# In order to activate infectivity, rotavirus was placed in a solution of 10 μg/mL trypsin at 37° C. for 30 min. A 100 μl aliquot of the activated rotavirus sa-11 was mixed with and equal volume of 80 μg/ml NK-lysin peptides for a final rotavirus concentration of 1×10^6 TCID50/ml. The rotavirus and NK-lysin peptide mixture was first incubated for at 37° C. for 1 hour. Serial dilutions of rotavirus and rotavirus+peptide mixtures were prepared. Aliquots 100 μl of the 10-fold serial dilutions were then added to 96-well tissue culture plates comprising monolayers of MA-104 cells at a density of approximately 5.0×10^4 cells per well. Eight wells were used for each sample to make sure sufficient assay precision was achieved. The microplates were incubated for 5 days at 37° C. under 5% CO2 atmosphere. During the 5-day incubation, cells were monitored daily under a microscope to check for a cytopathic effect (CPE). A tissue culture infectious dose (TCID) was the infectious dose/mL of tissue culture equal to 50 percent of wells showing CPE at a specific dilution and was expressed as the TCID50 for that dilution. The highest dilutions in which 50% or higher wells were read as the TCID50.
# [15] = system: gram-positive and gram-negative bacteria; conditions: all bacterial strains tested
# Description: The gram-positive bacterial strains utilized were Streptococcus pyogenes (ATCC 19615) and Streptococcus mutans (isolate obtained from a patient at King Abdul-Aziz hospital). The gram-negative bacterial strains used included Salmonella typhimurium (ATCC 14028), Escherichia coli (ATCC 11775), Pseudomonas aeruginosa (ATCC 9027), Klebsiella oxytoca (ATCC 49131), Shigella sonnei (ATCC 25931), and Klebsiella pneumoniae (patient isolate). Tryptic soy broth (TSB) was used to grow all bacterial strain overnight, after which the bacteria were washed using phosphate-buffered saline (PBS, NaCl 8 g/L, KCl 0.2 g/L, Na2HPO4 1.4 g/L, KH2PO4 0.24 g/L), and then diluted in the same buffer with 1/1000 TSB to an OD600 nm of 0.08-0.1 (1×10^8) colony-forming units (CFU)/ml, which was determined after performing retrospective plate counts on tryptic soy agar. Unless otherwise noted, the experiments in the following examples employed this inoculum preparation apart from when minimum inhibitory and bactericidal concentrations were determined, which employed cells in Muller Hinton broth. […]
# Mueller Hinton broth (MHB) comprising 0.01% v/v acetic acid (Sigma Aldrich; St Louis, Mo.) and 0.2% w/v bovine serum albumin (Sigma Aldrich). […] The treated plates were incubated at […] and optical densities were determined for each well at 0 minutes, 1, 2 and 3 hours and after an overnight incubation. […]
# [16] = 80 μg/ml peptide, Rotavirus (SA-11)
structure (smiles),measurement,setting,value
CSCC[C@H](NC(=O)[C@H](Cc1ccccc1)NC(=O)[C@H](CC(N)=O)NC(=O)[C@H](CCCNC(=N)N)NC(=O)[C@H](CS)NC(=O)[C@@H](NC(=O)[C@H](CC(=O)O)NC(=O)[C@H](CCCNC(=N)N)NC(=O)[C@H](Cc1c[nH]c2ccccc12)NC(=O)[C@H](CCCNC(=N)N)NC(=O)[C@H](CO)NC(=O)[C@H](CCCNC(=N)N)NC(=O)CNC(=O)[C@@H](NC(=O)[C@H](CCCNC(=N)N)NC(=O)[C@H](CS)NC(=O)[C@@H](NC(=O)[C@H](CCCNC(=N)N)NC(=O)[C@@H](NC(=O)[C@H](C)NC(=O)[C@H](C)NC(=O)[C@H](CC(N)=O)NC(=O)[C@H](CO)NC(=O)[C@@H](NC(=O)[C@H](CO)NC(=O)[C@H](CCCNC(=N)N)NC(=O)[C@H](CCC(N)=O)NC(=O)[C@@H](NC(=O)[C@@H]1CCCN1)[C@@H](C)O)C(C)C)[C@@H](C)O)C(C)C)[C@@H](C)O)C(C)C)C(=O)N[C@@H](CCCNC(=N)N)C(=O)O [Human NK-lysin],MBC,[1],25 ± 0.012 µg/mL
same,MIC,[1],15 ± 0.014 µg/mL
same,MBC,[2],15 ± 0.012 µg/mL
same,MIC,[2],15 ± 0.012 µg/mL
same,MBC,[3],15 ± 0.040 µg/mL
same,MIC,[3],15 ± 0.040 µg/mL
same,MBC,[4],15 ± 0.010 µg/mL
same,MIC,[4],15 ± 0.010 µg/mL
same,reduction of bacterial survival,[5]; second hour of exposure,more than 60%
same,reduction of bacterial survival,[5]; third hour of exposure,> 50%
same,killing,"[5]; ATCC 14028, 15 μg/ml",82%
same,MBC,[5]; S.typhimrium ATCC 14028,70 ± 0.092 µg/mL
same,MIC,[5]; S.typhimrium ATCC 14028,15 ± 0.090 µg/mL
same,MIC,[6],15 ± 0.025 µg/mL
same,MBC,[7],25 ± 0.012 µg/mL
same,MIC,[7],15 ± 0.010 µg/mL
same,MBC,[8],25 ± 0.010 µg/mL
same,MIC,[8],15 ± 0.00 µg/mL
same,decrease of bacteria growth,[9],4.6 fold
same,growth of Salmonella typhimurium,"[10]; 2×MIC, 2 hr",less than 40%
same,growth of Salmonella typhimurium,"[10]; 2×MIC, 3 hr",less than 40%
same,bacterial growth,"[10]; 2×MIC, after incubation for 4 hr",less than 25%
same,growth of Salmonella typhimurium,"[10]; 2×MIC, first hour",30%
same,reduction of Salmonella typhimurium growth,[10]; after 4 hours,approximately 75%
same,clear zone diameter,[11],21 mm
same,antibacterial activity,[12],effective at suppressing or inhibiting growth
same,antibacterial activity,[13],inhibited growth
same,bacterial survivability,[14]; 1 hour,27%
same,bacterial survivability,[14]; 2 hours,34%
same,bacterial survivability,[14]; 3 hours,35%
same,Log10TCID50/ml,Rotavirus (strain SA-11); [16],6.00
same,TCID50/ml,Rotavirus (strain SA-11); [16],1.00 × 10^6 TCID50/ml
same,% reduction,"Rotavirus (strain SA-11); 80 μg/ml peptide, versus initial titre",49%
same,inhibition of infection / infectivity,Rotavirus (strain SA-11); Rotavirus (strain SA-11),50%
same,MIC,[15],15 µg/mL
